Earlier results, collected in article PMC12836451, “Cyclic Peptide–Polymer Conjugate Nanotubes for Delivery of SN‐38 in Treatment of Colorectal Cancer Model” (Advanced Healthcare Materials, 2025).

Conditions: typical conversion of irinotecan; cited from earlier work
Description: Despite significant scientific advances in recent decades, cancer remains one of the most formidable challenges for modern medicine. The rising rates of colorectal cancer (CRC) diagnoses, particularly amongst younger people, exemplify the new complexities faced. Despite efforts to promote early detection and fast onset of treatment, the prognosis for CRC remains grim, ranking as one of the deadliest malignancies worldwide. […]

CCc1c2c(nc3ccc(OC(=O)N4CCC(N5CCCCC5)CC4)cc13)-c1cc3c(c(=O)n1C2)COC(=O)[C@]3(O)CC [Irinotecan, irinotecan hydrochloride]
rate of enzymatic prodrug metabolism: < 10%

Where a name gives a salt, the structure may show the parent alone.
